## Yeast mating assay 1: variants of the scFv Ab-14

Values reported by Engelhart et al. 2022, doi:10.1038/s41597-022-01779-4 (FLAb copy).

Antigen: PDVDLGDISGINAS, a 14-residue peptide of the SARS-CoV-2 spike HR2 region.

The variants keep the heavy chain, the linker and the frameworks of Ab-14 (scFv order VH, a (GGGGS)3 linker, VL).
VH: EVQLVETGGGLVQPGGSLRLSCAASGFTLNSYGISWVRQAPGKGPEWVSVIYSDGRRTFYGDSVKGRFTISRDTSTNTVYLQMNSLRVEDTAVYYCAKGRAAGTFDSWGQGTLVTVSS
VL: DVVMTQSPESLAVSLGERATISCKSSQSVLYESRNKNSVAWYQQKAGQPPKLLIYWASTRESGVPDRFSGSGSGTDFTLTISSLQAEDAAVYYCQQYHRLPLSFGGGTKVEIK

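Library AAYL50 holds single substitutions and randomly drawn double and triple substitutions in the CDRs. The scFvs were displayed on barcoded MATa yeast, the peptide on MATalpha yeast. The frequency of each diploid, read from paired DNA barcodes, reflects how well the two displayed proteins bind. Each replicate has its own calibration line, from reference interactions of the BCL2 family. Mating was done three times.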

The parent's light chain CDRs are KSSQSVLYESRNKNSVA, WASTRES, QQYHRLPLS; each variant's own CDRs replace them letter for letter.
Values are log10 of the apparent Kd in nM; lower means stronger binding.
A mean of the replicates is given; it leaves out those without a signal.
Where no diploid with the target was found in that replicate, the entry reads "nd": below detection, most likely a poor binder, though not proof of it.
As a blank, each scFv also met three strains without target: over library AAYL50, 18% of these pairings were detected, typically at 4.19 and seldom below 2.99. Also given: how often the same scFv was detected with the empty control strains, with their mean in brackets.

CDR-L1,CDR-L2,CDR-L3,"log10 Kd, replicates","mean, log10 nM",signal with controls
KSSQSVLYESRNKNSVF,WASTRES,NQYHRLHLS,3.57 / 5.27 / 4.59,4.48,1 of 9 (4.81)
KSSQSVLYESRVKNSVA,RASTRET,QQYHRLPLS,2.04 / 1.68 / 1.96,1.89,1 of 9 (3.65)
KSGQSVLYESRNKNSVA,WASTREN,QQYHRLQLS,2.56 / 2.36 / 2.04,2.32,1 of 9 (3.46)
KSSQSVLYESRNKNSVA,DASTGES,QQYHRLPLS,nd / nd / nd,nd,0 of 9
KRSQSVLYESVNKNSVA,WASTRES,QQYHRLILS,3.65 / 2.24 / 3.93,3.27,3 of 9 (4.54)
KSSLSVLYEHRNVNSVA,WASTRES,QQYHRLPLS,3.54 / 3.01 / 5.83,4.13,4 of 9 (4.30)
HSSQSVLYEPRNKNSVA,WASTRES,CQYHRLPLS,4.39 / 4.30 / nd,4.35,4 of 9 (3.98)
KSSQSVLYESRNKNSVA,TASTRES,QQYHRLVLW,1.70 / 2.18 / 1.96,1.95,1 of 9 (3.45)
KSSQSVLYESRNFNSCA,WASTRES,QQYHRLGLS,nd / nd / nd,nd,1 of 9 (3.70)
KSSQSVLYESRNKNSVA,WASTRES,TAYHRLPLS,2.00 / 1.76 / 2.18,1.98,0 of 9
KSSQSVLAESRNKNSVA,WASTRES,KQYHRLPQS,1.42 / 2.13 / 2.70,2.08,0 of 9
KSSQSVLYESRNKNQVA,WASTRES,QQYHRLPFS,nd / 2.84 / nd,2.84,2 of 9 (4.05)
KSSRSVLYESRNKNSVA,WASTREE,QQYHRLPFS,0.70 / 1.07 / 0.90,0.89,4 of 9 (4.34)
KSSQSVLYGSRNKNSVA,WASTRES,QQYHRLPIP,0.87 / 0.73 / 0.68,0.76,2 of 9 (3.87)
KSSFSVLYESRNKNSVA,WACHRES,QQYHRLPLS,5.54 / 3.09 / 3.54,4.05,5 of 9 (4.01)
KSSQSVLYESRNKNSVG,WASGREC,QQYHRLPLS,nd / nd / nd,nd,1 of 9 (2.12)
KSSQSFLYESRNKNSVA,WTSTRFS,QQYHRLPLS,0.73 / 0.99 / 0.85,0.86,1 of 9 (4.93)
KSSQSVLYESRVKNSVA,PASTRES,QQYHRLKLS,nd / nd / nd,nd,0 of 9
KSSQSVLYESRNKNSVA,WASTRWS,QQYQRLPVS,nd / 2.39 / 2.66,2.52,0 of 9
QESQSVLYESRNKNSVA,WASTRES,QQYHRLPLI,1.31 / 1.25 / 1.36,1.31,0 of 9
KSSQSVLYESRNKGSVN,WASTRES,GQYHRLPLS,nd / nd / nd,nd,1 of 9 (4.14)
KSSQSVLYESRNKVSVA,WAFTCES,QQYHRLPLS,5.19 / 4.48 / 3.91,4.52,1 of 9 (4.58)
KSRQSVLYPSRNKNSVA,WASTRES,QQYHRLILS,nd / nd / nd,nd,3 of 9 (4.32)
KSSQSVLYESRFKNSNA,WALTRES,QQYHRLPLS,nd / 3.25 / nd,3.25,0 of 9
KGSQSVLYQSRNKNSVA,WASTRES,QQYHRGPLS,1.54 / 1.55 / 1.64,1.58,3 of 9 (4.33)
KSMQSVLYESANKNSVA,WASTRPS,QQYHRLPLS,1.22 / 1.60 / 1.56,1.46,0 of 9
KSSQSVLYMMRHKNSVA,WASTRES,QQYHRLPLS,nd / nd / nd,nd,0 of 9
KSSQSVLYESRNYNSVA,WASTQNS,QQYHRLPLS,3.70 / 3.19 / nd,3.44,0 of 9
KSSQSHLYESRHKNSVA,WASTRES,QQDHRLPLS,nd / nd / nd,nd,0 of 9
KSSQSVLYELRNKNSVA,WASTMES,QLYHRLPLS,4.02 / 4.70 / nd,4.36,0 of 9
KSSQSVLDESRNKNSVA,KASLRES,QQYHRLPLS,0.43 / 0.64 / 0.43,0.50,3 of 9 (3.59)
RSSQSVLYESRNKNSVA,WASTRES,CQYHRGPLS,nd / nd / nd,nd,1 of 9 (3.65)
KSSGSVLVESDNKNSVA,WASTRES,QQYHRLPLS,0.29 / 0.54 / 0.47,0.43,0 of 9
KSSSSVLYESRNNNSVA,WASTRES,QKYHRLPLS,3.57 / 2.47 / 3.46,3.17,0 of 9
KSSQSVLYNSRNKNSVA,WASTRED,QQYHRNPLS,1.16 / 1.12 / 1.27,1.18,0 of 9
KSSQSVLYEVRNKNSVA,WASYRES,GQYHRLPLS,nd / 3.36 / nd,3.36,1 of 9 (4.53)

Repeated from above, the 4 best binders with a signal in all replicates:

CDR-L1	CDR-L2	CDR-L3	log10 Kd, replicates	mean, log10 nM	signal with controls
KSSGSVLVESDNKNSVA	WASTRES	QQYHRLPLS	0.29 / 0.54 / 0.47	0.43	0 of 9
KSSQSVLDESRNKNSVA	KASLRES	QQYHRLPLS	0.43 / 0.64 / 0.43	0.50	3 of 9 (3.59)
KSSQSVLYGSRNKNSVA	WASTRES	QQYHRLPIP	0.87 / 0.73 / 0.68	0.76	2 of 9 (3.87)
KSSQSFLYESRNKNSVA	WTSTRFS	QQYHRLPLS	0.73 / 0.99 / 0.85	0.86	1 of 9 (4.93)